## Measured affinities in a library of Ab-14 light chain variants

Data: MIT Lincoln Laboratory AlphaSeq set, Li et al. 2023, doi:10.1038/s41467-023-39022-2, as distributed in FLAb.

Binding partner: SARS-CoV-2 spike HR2 peptide, sequence PDVDLGDISGINAS.

Ab-14 is the parent antibody, in scFv form: VH, then a 15-residue (Gly4Ser)3 linker, then VL. The heavy chain is unchanged in all variants.
VH: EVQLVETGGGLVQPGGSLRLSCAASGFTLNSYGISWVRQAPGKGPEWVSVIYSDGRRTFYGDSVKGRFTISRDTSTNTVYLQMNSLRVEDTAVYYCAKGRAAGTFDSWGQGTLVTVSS
VL: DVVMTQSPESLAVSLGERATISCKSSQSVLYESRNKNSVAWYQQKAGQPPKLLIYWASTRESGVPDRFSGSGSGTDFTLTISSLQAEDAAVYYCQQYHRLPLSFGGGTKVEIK

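These sequences belong to a second round, designed from the earlier measurements on random variants of the parent. Their group label is 14L_GP_Gibbs (GP: Gaussian process model; Gibbs: Gibbs sampling; a sequence that several methods proposed may carry one label only). The scFvs were displayed on barcoded MATa yeast, the peptide on MATalpha yeast. After mating in shaken culture at 30 °C for 16 h, diploids were selected and their barcode pairs sequenced. A regression on co-assayed BCL2-family reference pairs converts the normalised counts of each replicate to an apparent Kd. The assay was run in six technical replicates.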

Variants are written as CDR1, CDR2 and CDR3 of the light chain (limits as in the source). Parent: KSSQSVLYESRNKNSVA, WASTRES, QQYHRLPLS. The read-out is the apparent dissociation constant on a log10 scale (nM): the lower, the stronger. Replicates are averaged; those with no signal do not enter the mean. "n.d." marks a missing value. The strain was present, yet no cells mated with the target were sequenced in that replicate, which points to weak or no binding. The authors' rule: three or more of the six replicates give a measured affinity, fewer mean a poor binder. Of ten entries with the parent sequence, four were seen in most replicates (averages 0.34 to 2.37), three in one and three in none, so single entries are noisy. Empty control strains, which show no peptide, gave a signal in 4% of pairings with all light chain designs; the median was 2.64 and 95% of these signals were weaker than 1.59. No background was subtracted. The control count says in how many pairings with the empty strains this scFv gave a signal, with their mean in brackets. A sequence measured in both rounds can read differently, since the two assays cover different ranges.

| CDR-L1 | CDR-L2 | CDR-L3 | log10 Kd (nM) by replicate | log10 Kd (nM), mean | empty controls |
|---|---|---|---|---|---|
| KLHQSDGYESRNINSVA | NASQRCS | QQYHRLPLS | -0.19 / -0.33 / -0.46 / -0.39 / -0.38 / -0.17 | -0.32 | 2/18 (3.26) |
| KVSPSWLYEDRNWNSVA | QASCRES | QQYHRLPLS | 0.60 / 1.17 / 0.46 / 1.14 / 0.85 / 0.77 | 0.83 | 0/18 |
| KISQSVLYQARNQNSVA | SASTRLS | QQYHRLPLS | 0.23 / 0.39 / 0.46 / 0.22 / 0.36 / 0.61 | 0.38 | 0/18 |
| KLSQSVLYGQRNKNSVA | HASTRMS | QQYHRLPLY | 1.09 / 1.15 / 1.22 / 1.40 / 1.57 / 1.57 | 1.33 | 1/18 (3.28) |
| KVAQSMLGEERNKNSVA | SASTREN | QQYHRLPLS | -0.20 / -0.29 / -0.26 / -0.51 / -0.82 / -0.40 | -0.41 | 0/18 |
| KLENSELYQSRNKNSVA | NASTRYS | QQYHRLPLS | -0.07 / -0.14 / -0.39 / -0.52 / -0.09 / -0.01 | -0.20 | 0/18 |
| KLSQSMPYEQRNKNSVA | NASQRES | QQYHRLPLS | 0.81 / 0.85 / 0.54 / 0.26 / 0.70 / 0.47 | 0.61 | 0/18 |
| KLSFLGPYEQRNKNSVA | SASTRCS | QQYHRLPLS | 0.08 / -0.21 / -0.06 / -0.10 / -0.14 / -0.04 | -0.08 | 1/18 (2.21) |
| KISGSHLYESRNWNAVA | EASQREQ | QQYHRLPLS | 0.00 / 0.03 / -0.06 / -0.14 / 0.14 / 0.00 | -0.01 | 1/18 (3.14) |
| KSDQSELEESRNDNSVA | SANTRMS | QQYHRLPLS | 0.70 / 0.78 / 0.70 / 0.63 / 0.63 / 0.69 | 0.69 | 2/18 (2.00) |
| KLQQSMWYESRNKNSVA | QASQREV | QQYHRLPLS | 0.36 / 0.22 / 0.15 / -0.03 / 0.36 / 0.30 | 0.23 | 2/18 (2.85) |
| KLQQSVGYESRNQNAVA | AASTREE | QQYHRLPLS | 0.15 / 0.39 / 0.07 / -0.19 / 0.00 / 0.19 | 0.10 | 1/18 (2.88) |
| KLEQSWEYESRNSNNVA | QASTRSD | QQYHRLPLS | -0.10 / -0.30 / -0.20 / -0.44 / -0.36 / -0.03 | -0.24 | 3/18 (2.98) |
| KFSQLWMYEQRNKNSVA | QASQRES | QQYHRLPLS | -0.06 / -0.26 / -0.39 / -0.53 / -0.45 / -0.18 | -0.31 | 0/18 |
| KLQMSVMMESRWCNSVA | QASTREE | QQYHRLPLS | 0.57 / 0.91 / 0.90 / 0.37 / 0.73 / 0.51 | 0.66 | 2/18 (2.42) |
| KSPQSHDYGSRNKNSVA | EASERES | QQYHRLPLS | 0.36 / 0.12 / 0.24 / 0.10 / 0.25 / 0.24 | 0.22 | 1/18 (2.12) |
| KLSNSVWQESRMKNQVA | EASTREM | QQYHRLPLS | 1.01 / 0.49 / 1.12 / 0.69 / 0.81 / 0.75 | 0.81 | 1/18 (1.76) |
| KLMQMMPYESRNANSVA | NASTREE | QQYHRLPLS | -0.34 / -0.20 / -0.26 / 0.01 / -0.30 / -0.01 | -0.18 | 1/18 (1.84) |
| KLEISVMQWSRNKNSVA | NASTRLV | QQYHRLPLS | 0.23 / 0.19 / -0.17 / -0.27 / 0.13 / 0.14 | 0.04 | 1/18 (2.74) |
| KLQQFVEYESRWKNSVA | HASTRLS | QQYHRLPLS | 2.14 / 1.21 / n.d. / 1.89 / 1.61 / 2.64 | 1.90 | 0/18 |
| KVSQSKEYESRQKNSVA | NASTREL | QQYHRLPLS | n.d. / 2.94 / 2.11 / 2.57 / 4.18 / 2.65 | 2.89 | 0/18 |
| AFSGSHLYESRNQNSVA | EASTRCD | QQYHRLPLS | 0.29 / -0.11 / 0.01 / -0.20 / -0.17 / -0.02 | -0.03 | 0/18 |
| KLMQGVDMESRNKNSVA | NASMRLD | QQYHRLPLS | 0.12 / 0.27 / 0.01 / 0.20 / 0.21 / 0.52 | 0.22 | 2/18 (2.72) |
| KAQNSNEYESRMKNSVA | NASQRED | QQYHRLPLS | n.d. / n.d. / n.d. / n.d. / n.d. / n.d. | n.d. | 0/18 |
| KLSQSVLYGDRNKNSVA | HASTRMS | QQYHRLPLY | 0.21 / 0.09 / 0.36 / 0.01 / 0.08 / 0.41 | 0.19 | 2/18 (3.18) |
| KLSGSVEQLSRNKNSVA | HASLREV | QAYHRLPLS | 0.56 / 0.39 / 0.86 / 0.56 / 0.36 / 1.04 | 0.63 | 2/18 (3.63) |
| HSSPSVLYEDRNKNSVA | NASTRES | QQYHRLPLS | 0.60 / 0.58 / 0.36 / 0.73 / 0.63 / 0.51 | 0.57 | 0/18 |
| KFSGSQLYESRNSNSVA | HGSTRES | QDYHRLPLS | 0.41 / 0.80 / 0.73 / 0.53 / 0.86 / 0.83 | 0.69 | 0/18 |
| KVAYSEPYESRNKNSVA | DASTRSS | QQYHRLPLS | -0.27 / -0.14 / -0.50 / -0.49 / -0.40 / -0.37 | -0.36 | 1/18 (2.38) |
| KVSQLQDYESRNKNSVA | NASQREH | QQYHRLPLS | -0.08 / -0.06 / -0.08 / -0.25 / -0.14 / -0.10 | -0.12 | 2/18 (3.56) |
| KSSQSYDYEDRNQNSVA | SASQREH | QQYHRLPLS | 0.23 / -0.05 / -0.13 / -0.22 / -0.03 / 0.06 | -0.02 | 0/18 |
| KLVQLGDYESRNKNNVA | QASQREQ | QQYHRLPLS | 0.27 / 0.24 / 0.03 / 0.06 / 0.09 / 0.20 | 0.15 | 3/18 (3.35) |
| KLSPSWLYEERNDNSVA | NASQRES | QQYHRLPLS | 0.04 / -0.01 / -0.02 / -0.14 / -0.12 / 0.12 | -0.02 | 1/18 (2.64) |
| KLSQMWLYESRNCNSVA | NASQREE | QQYHRLPLS | 0.15 / 0.10 / -0.09 / -0.20 / -0.16 / 0.10 | -0.02 | 2/18 (2.87) |
| KLSQSVLYESRLKNSVA | NASTRMY | QQYHRLPLS | 0.72 / 0.40 / 0.37 / 0.62 / 0.30 / 0.44 | 0.48 | 0/18 |
| KLSESVLMESRWKNSVA | DASTREE | QQYHRLPLS | 0.50 / 0.19 / 0.18 / 0.19 / 0.35 / 0.35 | 0.29 | 1/18 (2.11) |
| KLMQSAWLESRNFNAVA | QASQREL | QQYHRLPLS | 1.84 / 1.69 / 1.00 / 1.53 / 1.30 / 1.09 | 1.41 | 0/18 |
| KVQYSMDYESRNKNSVA | EASDRLS | QDYHRLPLS | 1.02 / 0.73 / 0.85 / 0.73 / 0.67 / 1.15 | 0.86 | 3/18 (3.21) |
| KLSGSVCMLQRNDNSVA | DASTRES | QQYHRLPLS | 0.75 / 0.74 / 0.54 / 0.61 / 1.09 / 0.23 | 0.66 | 0/18 |
| KLQQDVLYESRNKNSVA | QASTRMV | QAYHRLPLS | 0.24 / -0.27 / -0.19 / -0.04 / 0.02 / 0.15 | -0.02 | 1/18 (2.75) |
| KVEQSMDYESRNVNSVA | NASTRLK | QQYHRLPLS | 0.68 / 0.33 / 0.24 / 0.33 / 0.36 / 0.51 | 0.41 | 2/18 (2.91) |
| KIDISELGESRNKNSVA | NASTRME | QQYHRLPLS | 0.21 / 0.00 / 0.12 / -0.11 / 0.22 / 0.24 | 0.11 | 2/18 (2.04) |
| KLQQFYEGESRNKNSVA | SASTRRS | QQYHRLPLS | 0.64 / 0.71 / 0.70 / 0.07 / 0.33 / 0.29 | 0.46 | 0/18 |
| KLDQSWWRESRNKNSVA | QASTREQ | QQYHRLPLS | 0.04 / 0.01 / -0.05 / 0.02 / -0.12 / 0.46 | 0.06 | 1/18 (2.03) |
| KLPQWDLYEGRNKNSVA | NASTRFD | QQYHRLPLS | 0.14 / -0.08 / -0.06 / -0.24 / -0.12 / -0.01 | -0.06 | 0/18 |

Top 5 of the variants detected in all replicates, tightest first:

CDR-L1	CDR-L2	CDR-L3	log10 Kd (nM) by replicate	log10 Kd (nM), mean	empty controls
KVAQSMLGEERNKNSVA	SASTREN	QQYHRLPLS	-0.20 / -0.29 / -0.26 / -0.51 / -0.82 / -0.40	-0.41	0/18
KVAYSEPYESRNKNSVA	DASTRSS	QQYHRLPLS	-0.27 / -0.14 / -0.50 / -0.49 / -0.40 / -0.37	-0.36	1/18 (2.38)
KLHQSDGYESRNINSVA	NASQRCS	QQYHRLPLS	-0.19 / -0.33 / -0.46 / -0.39 / -0.38 / -0.17	-0.32	2/18 (3.26)
KFSQLWMYEQRNKNSVA	QASQRES	QQYHRLPLS	-0.06 / -0.26 / -0.39 / -0.53 / -0.45 / -0.18	-0.31	0/18
KLEQSWEYESRNSNNVA	QASTRSD	QQYHRLPLS	-0.10 / -0.30 / -0.20 / -0.44 / -0.36 / -0.03	-0.24	3/18 (2.98)